The values below come from patent US6921840B1 (The Trustees of the University of Pennsylvania, priority 1999, dated 2005).

Protein sequences, listed by entry. Tags and fused reporters are not part of them.
UniProt P31652, whole entry: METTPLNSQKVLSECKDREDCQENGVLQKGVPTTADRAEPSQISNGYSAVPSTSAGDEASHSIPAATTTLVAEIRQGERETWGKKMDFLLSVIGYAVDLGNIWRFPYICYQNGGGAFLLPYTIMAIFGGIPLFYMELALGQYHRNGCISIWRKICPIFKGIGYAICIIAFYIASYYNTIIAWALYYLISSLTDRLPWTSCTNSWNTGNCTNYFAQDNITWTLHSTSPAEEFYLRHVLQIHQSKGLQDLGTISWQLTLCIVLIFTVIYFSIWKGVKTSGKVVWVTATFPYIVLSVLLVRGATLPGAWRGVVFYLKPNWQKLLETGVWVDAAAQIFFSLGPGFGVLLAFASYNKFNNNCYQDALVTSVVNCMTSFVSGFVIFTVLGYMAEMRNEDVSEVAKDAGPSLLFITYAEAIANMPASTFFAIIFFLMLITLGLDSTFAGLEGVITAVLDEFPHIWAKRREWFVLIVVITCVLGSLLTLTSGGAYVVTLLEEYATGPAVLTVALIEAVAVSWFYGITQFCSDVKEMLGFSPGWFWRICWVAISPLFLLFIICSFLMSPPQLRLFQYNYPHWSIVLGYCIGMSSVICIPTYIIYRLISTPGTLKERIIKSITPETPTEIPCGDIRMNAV

The structures appear in SMILES notation. Entries after “also recorded” stand apart in the source; their conditions may differ.

In test [1] the target is T1, SERT (Rattus norvegicus, UniProt P31652). Kind of test: In vivo competitive binding: drug pretreatment before [125I]IDAM. The conditions noted are these: 2 mg/kg i.v. 5 min prior to tracer; 60 min after tracer. How it is done: Experiments were performed using groups of 3-4 animals per study. […] The reduction of regional specific binding in the drug-pretreated rats was compared to the control animals with saline pretreatment.

Test [2] concerns the target T1, SERT. Kind of test: Competition binding with [125I]IDAM in rat frontal cortical homogenate. Conditions: for Ki for inhibition of [125I]IDAM binding: 0.2 nM [125I]IDAM, rat frontal cortical homogenate. Also on record: The frontal cortex of rat brain were dissected and homogenized in 30 volumes of buffer; from tissue; host or cells: rat frontal cortex membrane homogenates (male Sprague-Dawley rats, control and PCA-lesioned). How it is done:
The homogenates were centrifuged at 20,000 g for 20 min. The resulting pellets were then re-suspended and recentrifuged. The final pellets were suspended in the same buffer and used for in vitro binding assays.
Various inhibitors were serially diluted with the buffer containing 0.1% BSA to overcome the stickiness and loss due to dilution. […] Incubation was carried out for 60 min at room temperature and then terminated by separation of bound from free radioligand by filtration through glass fiber filters (Schleicher & Schuell No. 25, Keene, N.H.) presoaked with 1% polyethylenimine. The filters were then washed three times with 3 ml of ice-cold […] Tris buffer and counted in a gamma counter (Packard 5000) with 70% efficiency. To study the effect of […], the homogenates were prepared in a sodium-free 50 mM Tris-HCl/5 mM KCl buffer.

Test [3] has as its target T1, SERT. The conditions noted are these: 2 mg/kg i.v. 5 min prior to tracer; 60 min post-injection. On the procedure:
At 60 min post i.v. injection, the animals were sacrificed by cardiac excision while under ether anesthesia. The brains were rapidly removed, placed in embedding medium (Tissue Tek, Miles Laboratory, Elkhart, Ind.) and frozen with powdered dry ice. After reaching equilibrium at −20° C. consecutive 20 μm coronal sections were cut on a cryostat microtome (Hacker Instruments, Fairfield, N.J.) thaw-mounted on microscope slides, and air-dried at room temperature. […] The microscale standards were calibrated with tissue mash standards for the value conversion to nCi/mg protein. The exposed film was developed by a Kodak automatic film processor. […] The brain sections of the pretreated rats were processed following the same procedures described above for the normal untreated rats.

In general, Ki refers to a dissociation constant, usually derived from enzyme kinetics or from competition with a known ligand. Low readings indicate a stronger hold on the target, high ones a looser hold on the target. As for `Fc1ccc([C@@H]2CCNC[C@H]2COc2ccc3c(c2)OCO3)cc1` [Paroxetine, paroxetine], the “effect of pretreatment on specific binding of [125I]IDAM in rat brain regions” value in test [1] was “dramatically reduced; also recorded: blocked”. Moreover, in test [2], the Ki was < 0.1 nM and the “Ki for inhibition of [125I]IDAM binding” value was “low nanomolar range”. Besides, in test [3], the “effect of pretreatment on [125I]IDAM autoradiograms” value is on record as “significantly reduced”.

Take `CNCCC(Oc1ccccc1OC)c1ccccc1` (centres unmarked) [nisoxetine]: in test [1], the “effect of pretreatment on specific binding of [125I]IDAM in rat brain regions” value was “no significant inhibition”. In test [2], the affinity, expressed as Ki, was 20.2 nM and the “Ki for inhibition of [125I]IDAM binding” value is “much less potent”. Besides, in test [3], the “effect of pretreatment on [125I]IDAM autoradiograms” value is given as “no statistically significant difference”.
